Experimental data: publication PMC4589779 (Scientific Reports, 2015)

System: bile salt export protein (BSEP) mRNA
Details: HepG2 cells, 25 μM and 50 μM in competition with CDCA (50 μM), 6 h
Description: Quantification of the expression of FXR target genes in non-transfected cells offers the least artificial way to characterize the activity of a FXR ligand in vitro. […] As investigated genes we selected the direct FXR target genes bile salt export protein (BSEP) and small hetero-dimer partner (SHP) which allows a specific conclusion whether a FXR-dependent effect is present. […] We then quantified the mRNA of FXR target genes BSEP and SHP by qRT-PCR.
HepG2 cells were seeded in DMEM high glucose, supplemented with 10% FCS, SP (1 mM), penicillin (100 U/mL) and streptomycin (100 μg/mL) at 37 °C and 5% CO2 in 6-well plates (2 · 10^6 per well). 24 h after seeding, medium was changed to MEM, supplemented with 1% charcoal-stripped FCS, penicillin (100 U/mL), streptomycin (100 μg/mL) and L-glutamine (2 mM). After additional 24 h, medium was changed again to MEM, now additionally containing 0.1% DMSO and the respective test compounds or 0.1% DMSO alone as untreated control. Cells were incubated with the test compounds for 6 h, harvested, washed with cold phosphate buffered saline (PBS) and then directly used for RNA extraction. […]
FXR target gene expression was evaluated by quantitative PCR analysis with a StepOnePlusTM System (Life Technologies) using PowerSYBRGreen (Life Technologies; 12.5 μL per well) and the following primers[17] […] The expression was quantified by the comparative ΔΔCt method.

O=C(O)Cc1ccccc1Nc1c(Cl)cccc1Cl [diclofenac, diclofenac sodium]
antagonistic effect on BSEP expression: did not observe any antagonistic effect
